Experimental data from PubChem BioAssay AID1497 (Sanford-Burnham Center for Chemical Genomics, 2009).
The entries are a selection whose mix differs from that of the whole data set. Calls of active or inactive are those of the source.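 How the source made its calls: active means primary inhibition of 50% or more at 10 µM, then 40% or more on retest; inactive means the rest.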

Protein sequences, listed by entry. Tags and fused reporters are not part of them.
UniProt P05107, whole entry, looked up: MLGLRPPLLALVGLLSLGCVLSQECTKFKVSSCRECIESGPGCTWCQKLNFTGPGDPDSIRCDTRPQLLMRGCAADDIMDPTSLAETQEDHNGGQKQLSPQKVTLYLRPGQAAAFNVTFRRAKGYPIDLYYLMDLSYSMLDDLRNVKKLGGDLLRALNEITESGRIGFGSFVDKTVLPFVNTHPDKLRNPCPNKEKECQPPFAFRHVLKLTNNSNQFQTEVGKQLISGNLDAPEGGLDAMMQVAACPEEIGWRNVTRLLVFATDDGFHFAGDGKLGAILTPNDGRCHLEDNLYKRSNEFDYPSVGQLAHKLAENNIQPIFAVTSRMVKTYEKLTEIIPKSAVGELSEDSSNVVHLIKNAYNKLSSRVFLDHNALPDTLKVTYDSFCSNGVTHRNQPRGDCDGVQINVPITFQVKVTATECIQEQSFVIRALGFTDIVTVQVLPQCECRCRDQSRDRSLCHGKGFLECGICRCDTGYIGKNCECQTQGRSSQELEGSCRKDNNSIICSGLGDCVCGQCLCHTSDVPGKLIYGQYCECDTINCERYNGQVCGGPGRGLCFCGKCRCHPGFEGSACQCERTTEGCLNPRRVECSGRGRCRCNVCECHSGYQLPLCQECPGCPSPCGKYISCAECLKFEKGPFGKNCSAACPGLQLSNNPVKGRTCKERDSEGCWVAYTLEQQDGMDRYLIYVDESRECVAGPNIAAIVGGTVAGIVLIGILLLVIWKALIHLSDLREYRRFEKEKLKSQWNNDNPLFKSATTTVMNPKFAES

These compounds were tested against Integrin beta-2 (Homo sapiens) + Integrin alpha-M (Homo sapiens) (UniProt P05107+P11215) (assay: inhibitors of CD11b/CD18 adhesion to fibrinogen, primary screen, K562 cells, luminescence (AID 1497)). Settings: ATPlite luminescence, at 10 µM, stronger effect = higher value, Mn2+ added to activate the integrin.

SMILES | inhibition
O=[N+]([O-])c1ccc2c(c1)nnn2O | inactive: 7.3%
CCOP1(=S)c2c(C)nn(CCC#N)c2N=C(c2ccc(F)cc2)N1C (stereo not given) | inactive: -7.7%
CCOP1(=S)c2c(C)nn(CCC#N)c2N=C(c2ccccc2F)N1C (stereo not given) | inactive: -16.8%
Cc1ccc(NCCc2c([N+](=O)[O-])cc([N+](=O)[O-])cc2[N+](=O)[O-])cc1 | inactive: -4.3%
Cc1cccc(OCC(=O)OC2CN3CCC2CC3)c1 (stereo not given) | inactive: -2.4%
O=P1(Nc2ccccn2)COc2ccccc2OC1 | inactive: 5.7%
Clc1n[nH]nc1-c1nn[nH][15n]1 | inactive: -2.9%
O=P1(Nc2ncccn2)COc2ccccc2OC1 | inactive: 28.4%
Cc1ccc(OCC(=O)OC2CN3CCC2CC3)cc1 (stereo not given) | inactive: -8.7%
O=P1(Nc2ccc(Br)cn2)COc2ccccc2OC1 | inactive: 11.7%
Cc1nn(-c2ccccc2)c2c1P(=O)(N1CCOCC1)N(C)C(c1ccccc1)=N2 (stereo not given) | inactive: -42.6%
Cc1cc(SC(NC(=O)c2ccccc2)C(Cl)(Cl)Cl)nc(C(C)C)n1 (stereo not given) | inactive: 12.3%
COP1(=S)c2c(C)nn(CCC#N)c2N=C(c2ccc(F)cc2)N1C (stereo not given) | inactive: -9.2%
O=C(COc1ccccc1)OC1CN2CCC1CC2 (stereo not given) | inactive: -6.2%
O=C(OC1CN2CCC1CC2)C12CC3CC(CC(C3)C1)C2 (stereo not given) | inactive: 10%
Cc1c2c(nc3ccccc13)SC(C(Cl)Cl)C2 (stereo not given) | inactive: 2.8%
CCN(CC)C(=S)SC(NC=O)C(Cl)(Cl)Cl (stereo not given) | inactive: -6.6%
Cc1ccc2nc3c(c(C)c2c1)CC(C(Cl)Cl)S3 (stereo not given) | inactive: 2.5%
CCN(N=Nc1nonc1N)c1nonc1N | inactive: -0.3%
Cc1cc(SC(NC(=O)c2ccc(F)cc2)C(Cl)(Cl)Cl)ncn1 (stereo not given) | inactive: -2.9%
CCOP(=O)(Nc1ccccc1)OCC | inactive: -7.4%
Oc1ccccc1CNc1ccccn1 | inactive: -40.4%
Cc1c2non([O-])c-2c(C)[n+](=O)[n+]1[O-] | inactive: -1.5%
O=[N+]([O-])c1cccc2n[nH]nc12 | inactive: 17.8%
CCc1nc2c(n1)c1c(non1O)c1c2no[n+]1[O-] | inactive: 15.2%
O=C(OC1CN2CCC1CC2)c1cccc(Cl)c1 (stereo not given) | inactive: -26.2%
O=P(Nc1nccs1)(c1ccccc1)c1ccccc1 | inactive: 31.8%
CC(C)C(=O)NC(Sc1ccccc1)C(Cl)(Cl)Cl (stereo not given) | inactive: -2.9%
c1nnnn1CCn1cnnn1 | inactive: -2.5%
O=P1(Nc2nc3ccc(Cl)cc3s2)COc2ccccc2O1 (stereo not given) | inactive: 9.4%
